Data: patent US9353061B2, “3,5,N-trihydroxy-alkanamide and derivatives: method for making same and use thereof” (Academia Sinica, priority 2012, dated 2016)

System: HS68 normal human fibroblast cells
Assay type: cell-based
Settings: ratio of IC50 values, cancer cell and normal cell

SMILES: CCC(C)(C)C(=O)O[C@H]1C[C@@H](C)C=C2C=C[C@H](C)[C@H](CC[C@@H](O)C[C@@H](O)CC(=O)NO)[C@H]21 [Simva-HA, (3R,5R)-7-{(1S,2S,6R,8S,8aR)-Hexahydro-2,6-dimethyl-8-[2-dimethylbutyryloxy]naphthalenyl}-3,5-dihydroxy-N-hydroxyheptanamide]
- SI A549/HS68 (selectivity index): >5.0
